Data: ChEMBL document CHEMBL1133472, “Synthesis and evaluation of N,N-dialkyl enkephalin-based affinity labels for delta opioid receptors” (J Med Chem, 2000)

Test system: mu (Rattus norvegicus) & delta (Mus musculus) opioid receptors
Assay: Ratio of IC50 against mu opioid receptor to that of delta opioid receptor

Molecule C=CCN(CC=C)[C@@H](Cc1ccc(O)cc1)C(=O)NC(C)C(=O)NC(C)C(=O)N[C@@H](Cc1ccc(NC(=O)CBr)cc1)C(=O)N[C@@H](CC(C)C)C(=O)O (stereo partly specified) has a Ratio of over 255.
